Glioma ERSR ind: inducers of ER stress response in human glioma cells; AID 602332; U87-MG GRP78 promoter luciferase reporter, 16 h; 420,000 compounds, 0.02% hits; Potency, µM, most hits filed as activators; note: series mostly up to about 76 µM; nearly all actives have a fitted effect of over 35% in size
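ERSR induction read as luciferase luminescence (Bright-Glo, 10 min at room temperature) in stably transfected human U87-MG glioma cells exposed to compounds for 16 h, using GRP78 as sensor.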
miR-21 reporter: raises the signal of a miR-21 reporter | HeLa miR-21 FLuc reporter, luciferase, 48 h | Potency, µM (doses to about 38.3 µM) | 340,000 tested, under 10 active | AID 2288; active = well fitted rising curve with a large enough effect; inconclusive = small, poorly fitted or top-dose-only effect; inactive = no such curve, though single readings can be large or run the other way;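 also: miR-21 action dims this reporter so a rising signal means less miR-21 action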
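Compounds were titrated across several concentrations (up to approximately 40 uM) and incubated 48 hours with HeLa miR-21-FLuc reporter cells (miR-21 target sequence downstream of FLuc, endogenous miR-21). Readout was firefly luciferase luminescence after lytic detection reagent.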
A549 viability: kills or reduces viability of A549 cells in Nrf2 counter-screen | Potency, µM (highest dose often 46 µM), usual class: inhibitors | AID 504648 | A549 ARE-Fluc cells, CellTiter-Fluor viability, 18-24 h | 390,000 compounds, 0.16% hits
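A549 ARE-Fluc cells in 5% FBS OPTI-MEM, 5000 cells/well, rested 2 h then exposed to compounds in concentration-response for 18-24 h at 37 °C. Viability by CellTiter-Fluor fluorescence (Ex 405/Em 525) after 30 min; luciferase luminescence (BugLite, 15 min, RT) read afterwards.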
PTAP TSG101 blk: blocks PTAP/TSG101 interaction to inhibit HIV-1 budding; AID 493005; Fluorescence polarization, FITC-PTAP peptide / Tsg101 binding; Q99816; Potency, µM (highest dose often 115 µM), most hits filed as inhibitors; 340,000 tested, under 10 active; active = well fitted inhibition curve with a large enough effect in the main read-out, with a control signal flat, not every such curve was filed as active; inconclusive = small, poorly fitted or top-dose-only effect, or effect the other way, or a change in a side signal; inactive = no such curve, though single readings can be large or run the other way
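Tsg101 binding domain (10 uM final) was mixed with compound and a FITC-labeled PTAP peptide (50 nM final) in HEPES pH 7.5 buffer with NaCl, Tween 20, EDTA and TCEP; fluorescence polarization was read after 20 min at r.t.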
Nrf2 block: blocks Nrf2 signaling. A549 ARE-Fluc reporter, luciferase luminescence, 18-24 h. 360,000 compounds, 2.1% hits. Potency, µM (top dose mostly 46 µM), actives largely listed as inhibitors; note: nearly all actives have a fitted effect of over 60% in size
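A549 ARE_Fluc cells, 5000/well, 5% FBS OPTI-MEM; compounds in dose-response, 18-24 h at 37 °C/5% CO2; CellTiter-Fluor viability read (Ex 405/Em 525), then BugLite luciferase luminescence = Nrf2 activity.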
Nrf2 ARE act: activates Nrf2 signaling; AREc32 ARE-luciferase reporter (MCF7-derived line), luminescence, 24 h; Potency, µM (top dose mostly 46.1 µM), hits mostly activators; 410,000 compounds, 0.31% hits; AID 624171; note: nearly all actives have a fitted effect of over 65% in size
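Luminescent ARE reporter assay in AREc32_Fluc cells: overnight plating at 37 deg C, 24 hr compound incubation, Steady-Glo added, 30 min RT before reading.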
Each line names hits and unclear results; the compound was inactive in the other large screens. In the library only some 2.1% were active in any assay of this set; here they are far more common. Unless noted, calls come from the whole dose curve; as a rule, active = well fitted curve in the direction sought with a large enough effect; inconclusive = small, poorly fitted or top-dose-only effect, or another doubt; inactive = no such curve, though single readings can be large; an effect the other way counts as inactive or inconclusive.

Cc1cccc(N2CCN(C(=O)Cn3ccc4ccccc4c3=O)CC2)c1C	Nrf2 block 18µM
Cc1cccc(N2CCN(C(=O)Cn3cnc4c3c(=O)n(C)c(=O)n4C)CC2)c1C	none
CCOc1ccccc1N(C)C(=O)Cn1nc(Cc2cccnc2)c2ccccc2c1=O	none (no result: PTAP TSG101 blk)
CCN(C(=O)Cn1nc(Cc2cccnc2)c2ccccc2c1=O)c1cc(C)ccc1C	Nrf2 block 18µM (no result: PTAP TSG101 blk)
C/C(=N/OCC(=O)Nc1ccccc1)c1cccs1	none (no result: Nrf2 block)
C/C(=N\OCC(=O)Nc1ccccc1Br)c1cccs1	Nrf2 ARE act 22µM
COc1ccc(CN2CCOc3ccc(CN4CCC(O)CC4)cc3C2)c(OC)c1OC	none (no result: miR-21 reporter, A549 viability, PTAP TSG101 blk, Nrf2 block, Nrf2 ARE act)
O=C(CC1SC(=Nc2cccc3ccccc23)N(Cc2ccccn2)C1=O)Nc1ccccc1Br (configuration not stated)	Nrf2 block 5.2µM
COc1ccc(NC(=S)Nc2ccc(Oc3ccccc3)cc2)cc1	Nrf2 block 23µM
Cc1ccc(C(=O)NC(=S)Nc2ccc(Oc3ccc(Cl)cc3)cc2)cc1	Nrf2 block inconclusive
CCNC(=S)Nc1ccc(Oc2ccccc2)cc1	none (no result: miR-21 reporter)
O=C(NC(=S)Nc1ccc(Oc2ccccc2)cc1)c1ccc(Cl)cc1	Nrf2 block 26µM
COCCCc1cc(F)c(S(=O)(=O)N2CCN(S(=O)(=O)c3ccc4c(c3)OCCO4)CC2)cc1F	none (no result: Glioma ERSR ind, miR-21 reporter, PTAP TSG101 blk, Nrf2 ARE act)
O=C(NCc1cccnc1)[C@@H]1CC=C[C@@H]2CCN(C3CCCCC3)C(=O)[C@@H]21	none (no result: miR-21 reporter, A549 viability, PTAP TSG101 blk, Nrf2 block, Nrf2 ARE act)
Cc1c(C(=O)N2CC[C@@H]3CCCC[C@H]3C2)sc2ncnc(NCCc3ccccn3)c12	none (no result: miR-21 reporter, A549 viability, PTAP TSG101 blk, Nrf2 block, Nrf2 ARE act)
NNC(=O)c1oc2nc(-c3ccc(Cl)cc3)cc(-c3ccccc3)c2c1N	Nrf2 block 10µM
NNC(=O)c1oc2nc(-c3ccco3)cc(-c3ccco3)c2c1N	Nrf2 block inconclusive
CCOC(=O)c1sc2nc(CC(=O)OC)nc(NCc3ccc(F)cc3)c2c1C	A549 viability inconclusive, Nrf2 block 10µM
CCOC(=O)c1sc2nc(C)nc(NCc3ccc(Cl)cc3)c2c1C	Nrf2 block 18µM
CCOC(=O)c1sc2nc(C)nc(NCc3ccc(F)cc3)c2c1C	Nrf2 block inconclusive
Cc1csc(NC(=O)c2ccncc2)n1	none
CC(C)(C)c1csc(NC(=O)c2ccncc2)n1	Nrf2 block 16µM
O=C(CNC(=S)NC(=O)c1ccccc1Br)c1ccccc1	Nrf2 block inconclusive, Nrf2 ARE act 2.2µM
Cc1ccccc1C(=O)NC(=S)NCC(=O)c1ccccc1	none
C(=C\c1ccnc2ccccc12)/c1ccc(N2CCNCC2)cc1	none (no result: miR-21 reporter, A549 viability, PTAP TSG101 blk, Nrf2 block, Nrf2 ARE act)
Cc1ccc(Sc2ccccc2CN(C)C)c(N)c1	none (no result: miR-21 reporter, A549 viability, PTAP TSG101 blk, Nrf2 block, Nrf2 ARE act)
O=S1(=O)N=C(Oc2ccccc2C(F)(F)F)c2ccccc21	Nrf2 block inconclusive (no result: Glioma ERSR ind, miR-21 reporter, PTAP TSG101 blk, Nrf2 ARE act)
N=c1c2ccccc2nnn1-c1ccccc1[N+](=O)[O-]	Nrf2 ARE act 14µM (no result: miR-21 reporter)
N#Cc1ccc(-n2nnc3ccccc3c2=O)c([N+](=O)[O-])c1	none (no result: miR-21 reporter)
OCCN1CCN(Cc2ccc3c(c2)CN(Cc2ccc4ccccc4c2)CCO3)CC1	none (no result: miR-21 reporter, A549 viability, PTAP TSG101 blk, Nrf2 block, Nrf2 ARE act)
COC(=O)c1c(NC(=O)CN2CCC3(O)CCCCC3C2c2ccc(F)cc2)sc(C)c1C (configuration not stated)	Nrf2 block inconclusive
COC(=O)c1c(NC(=O)CN2CCC3(O)CCCCC3C2c2cc(OC)ccc2OC)sc(C)c1C (configuration not stated)	miR-21 reporter inconclusive, Nrf2 block 18µM
CS(=O)(=O)c1ccc(S(=O)CC(=O)OCc2ccccc2)c([N+](=O)[O-])c1 (configuration not stated)	miR-21 reporter inconclusive, A549 viability inconclusive, Nrf2 block 18µM, Nrf2 ARE act inconclusive
COc1ccc(C(=O)N2CCOc3ccc(CN4CCN(c5ccccn5)CC4)cc3C2)o1	none (no result: miR-21 reporter, A549 viability, PTAP TSG101 blk, Nrf2 block, Nrf2 ARE act)
CC1CCC2C(=O)N(c3ccc(Cc4ccncc4)cc3)C(=O)C2C1 (configuration not stated)	Nrf2 block 10µM
CC(C)Cn1c(C(C)C)nc([N+](=O)[O-])c1Sc1ccc(Cl)cn1	Nrf2 ARE act inconclusive
CCCCn1c(CCC)nc([N+](=O)[O-])c1Sc1ccc(Cl)cn1	Nrf2 block inconclusive, Nrf2 ARE act 11µM

Source: PubChem (National Center for Advancing Translational Sciences (NCATS))
